The list shows a part of the results, in another mix than the full data. Activity calls are given as the source filed them. Rule as the data show it: active = inhibition above about 50%; inactive = the rest.
Test: CASP1-PYCARD signaling inhibition in yeast, confirmatory test, counterassay for NLRP3 inhibitor program, one-dose (AID 488784)
Conditions: yeast expressing Caspase-1-ASC, luminescence counter screen; at 10 µM; stronger effect = higher value
With `CC(C)(C)OC(=O)N1CCC(Nc2ccccc2)CC1` the inhibition was active: 50.8%.

— PubChem BioAssay AID488784 (Sanford-Burnham Center for Chemical Genomics, 2010)
